Test results: USRE49816E1, “Dipeptides as inhibitors of human immunoproteasomes” (CORNELL UNIVERSITY, priority 2014, dated 2024)

tested on: Karpas 1106p cells; experiment: Cytotoxicity (LD50) against Karpas lymphoma cells; assay type: cell-based, human; details: Table 3
Experimental: Table 3 lists the inhibition kinetic parameters, selectivity index, and calculated log Ps of selected dipeptides. Hill slopes of all compounds were <1.0 (FIG. 5A). […] Their cytotoxicity against the Karpas lymphoma cells was determined (Table 4). The LD50s (Table 4) correlated with the IC50s for c-20S inhibition, as the LD50s were equal to or slightly higher than the IC50s for c-20S inhibition (FIG. 6).

| Compound | LD50 [µM] |
| --- | --- |
| C[C@H](NC(=O)[C@H](CC(=O)NOC(C)(C)C)NC(=O)CN1CCOCC1)C(=O)NCc1cccc2ccccc12 [DPLG-2099, (S)—N4-(tert-butoxy)-2-(2-morpholinoacetamido)-N1-((S)-1-((naphthalen-1-ylmethyl)amino)-1-oxopropan-2-yl)succinamide] | >100 |
| Cc1ccc(S(=O)(=O)N[C@@H](CCC(=O)NC(C)(C)C)C(=O)N[C@@H](C)C(=O)NCc2cccc3ccccc23)cc1 [DPLG-2256] | 0.034 |
| Cc1cc(C(=O)N[C@@H](CC(=O)NOC(C)(C)C)C(=O)N[C@@H](C)C(=O)NCc2cccc3ccccc23)no1 [DPLG-2105, (S)—N4-(tert-butoxy)-2-(5-methylisoxazole-3-carboxamido)-N1-((S)-1-((naphthalen-1-ylmethyl)amino)-1-oxopropan-2-yl)succinamide] | 18 |
| Cc1nc(C(=O)N[C@@H](CC(=O)NOC(C)(C)C)C(=O)N[C@@H](C)C(=O)NCc2cccc3ccccc23)cs1 [DPLG-2102, (S)—N4-(tert-butoxy)-2-(2-methylthiazole-4-carboxamido)-N1-((S)-1-((naphthalen-1-ylmethyl)amino)-1-oxopropan-2-yl) succinamide] | 42 |
| C[C@H](NC(=O)[C@H](CCC(=O)NC(C)(C)C)NC(=O)CCc1ccccc1)C(=O)NCc1cccc2ccccc12 [DPLG-2255] | 0.028 |
| COC[C@H](NC(=O)[C@H](CCC(=O)NC(C)(C)C)NC(=O)CCc1ccccc1)C(=O)NCc1cccc2ccccc12 [DPLG-2243] | 0.062 |
